Measured values reported in patent publication US20040197858.

Legend:
[1] = test system: Protein C
[2] = test system: fibrinogen

Substance | Activation of Protein C (TM+, thrombomodulin present): Km [1] [µM] | Activation of Protein C (TM+, thrombomodulin present): kcat [1] [s⁻¹] | Activation of Protein C (TM+, thrombomodulin present): kcat/Km [1] [M⁻¹ s⁻¹] | Activation of Protein C (TM-): Km [1] [µM] | Activation of Protein C (TM-): kcat [1] [s⁻¹] | Activation of Protein C (TM-): kcat/Km [1] [M⁻¹ s⁻¹] | Conversion of fibrinogen into fibrin: kcat/Km for FpA [2] [M⁻¹ s⁻¹]
purified recombinant α-thrombin | 6.2 | 1.44 | 233000 | 15.7 | 0.152 | 9670 | 1.09e+07
purified α-thrombin derived from plasma | 5.5 | 1.43 | 258000 | 16.3 | 0.142 | 8670 | 1.06e+07
